Patent EP0595743B1, “Bihaptinic derivatives for binding technetium or rhenium, process for their preparation, application for diagnosis and therapy, kits and immunological reactants comprising them” (priority 1992, dated 2001)

Tests used:
[1] = tested on: anticorps reconnaissant le haptène histamine-succinyl-glycine; conditions: radioactivity excreted in urine, tested against anti-hapten antibody
Protocol: (§1) La liaison du dérivé de l'exemple 3 aux cellules hépatiques s'effectue par l'intermédiaire de sa liaison au site Ac de l'anticorps 679.1MC7, lui même lié par son fragment F(c) à ces cellules. Des souris ayant reçu 2µg d'anticorps 679.1MC7 24 heures plus tôt sont injectées par voie intraveineuse avec 100 µCi (15 pmol) de dérivé de l'exemple 3. Les images sont réalisées avec une caméra Sopha Medical Gammatome 2 équipée avec un collimateur haute résolution de moyenne énergie, puis les animaux sont sacrifiés et la radioactivité présente dans le foie est déterminée à l'aide d'un compteur gamma. […] 100 µCi de dérivé de l'exemple 3 sont injectés à une souris ayant reçu quelques minutes plus tôt 1µg de conjugué anticorps CY34-679.1MC7 (anti-lyb8.2-anti-Histamine-Succinyl-Glycine). Les images sont enregistrées comme indiqué dans l'exemple précédent. […] Des cellules de tumeurs colorectales humaines (cellules LS 174, 3.10^6) sont injectées par voie sous cutanée à des souris nudes. […] Les souris reçoivent alors 2µg de conjugué anticorps F6-679.1MC7 (antiCEA-anti-Histamine-Succinyl-Glycine). Vingt quatre heures plus tard les souris reçoivent 6,7µCi (1pmol) de dérivé de l'exemple 3. Six heures plus tard les images sont enregistrées comme indiqué dans l'exemple précédent puis les animaux sacrifiés.

[2] = probe alone, 13 µCi, 2 pmol
Protocol: as §1

[3] = 10 nanomol, observed for 16 days

^99mTc mercaptoacétyl-Glycyl-Glycyl-Glycyl-N-ε-(Histamine-Succinyl-Glycine)-Lysyl-D-Tyrosyl-N-ε-(Histamine-Succinyl-Glycine)-Lysinamide [Exemple 3]
immunoréactivité de la radioactivité excrétée dans les urines [1]: ~90%
élimination de l'activité [2]: élimination très rapide de l'activité, principalement dans les urines
% de la dose injectée par gramme de foie ([2]; 6 h after injection, liver): 1 % par gramme
% de la dose injectée par ml de plasma ([2]; 6 h after injection, plasma): < 0,15 % de la dose injectée par ml
% de la dose injectée par gramme de rate ([2]; 6 h after injection, spleen): 0,2 % par gramme
% de la dose injectée par gramme de tumeur ([2]; 6 h after injection, tumour): 0,25 % par gramme
signe de toxicité [3]: aucun signe de toxicité
prise de poids ([3]; versus control animals): n'a pas été significativement différente
